# Apparent affinities of Ab-14 variants for a coronavirus HR2 peptide

Reference: Engelhart et al. 2022, doi:10.1038/s41597-022-01779-4. File: FLAb, binding data.

Binding partner: SARS-CoV-2 spike HR2 peptide, sequence PDVDLGDISGINAS.

Each scFv is VH, three GGGGS repeats, VL, as in the parent Ab-14, and differs from it in the CDRs of the heavy chain only.
VH: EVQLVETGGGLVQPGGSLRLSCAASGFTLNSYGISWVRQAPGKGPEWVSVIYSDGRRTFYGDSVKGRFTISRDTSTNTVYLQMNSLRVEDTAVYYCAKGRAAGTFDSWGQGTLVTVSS
VL: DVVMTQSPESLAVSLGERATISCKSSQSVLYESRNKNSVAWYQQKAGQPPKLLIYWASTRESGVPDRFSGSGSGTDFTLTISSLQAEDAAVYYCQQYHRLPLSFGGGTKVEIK

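The parent was found by panning a naive human phage display library on the peptide. In library AAYL49, one, two or three CDR residues were substituted; doubles and triples were drawn at random. In AlphaSeq, yeast of one mating type display the scFv and yeast of the other type display the target. Mating (16 h, 30 °C) was followed by selection of diploids and sequencing of their barcodes. Each replicate has its own calibration line, from reference interactions of the BCL2 family. There are three technical replicates.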

Variants are written as CDR1, CDR2 and CDR3 of the heavy chain (limits as in the source). Parent: GFTLNSYGIS, VIYSDGRRTFYGDSVK, GRAAGTFDS.
Values are log10 of the apparent Kd in nM; lower means stronger binding.
The mean shown is taken over the replicates in which the pair was detected.
Where no diploid with the target was found in that replicate, the entry reads "nd": below detection, most likely a poor binder, though not proof of it.
For reference, the parent read 0.65 as the reference entry and 4.11 (one replicate of three) as a member of this library.
Empty control strains, which show no peptide, gave a signal in 15% of pairings with library AAYL49; the median was 4.06 and 95% of these signals were weaker than 2.83. No background was subtracted. Also given: how often the same scFv was detected with the empty control strains, with their mean in brackets.

| CDR-H1 | CDR-H2 | CDR-H3 | log10 Kd (nM) by replicate | log10 Kd (nM), mean | empty controls |
|---|---|---|---|---|---|
| GFTLNSYGIE | VIYSDGRRTPYADSVK | GRAAGTFDS | nd nd nd | nd | 0/9 |
| GFTLNSYGIS | VIYSDGRRTFYGDSLK | GRAAGTFHE | nd nd nd | nd | 1/9 (4.28) |
| GFTLNSYGIS | VIYSYGRRTFRTDSVK | GRAAGTFDS | nd 3.88 5.16 | 4.52 | 2/9 (4.34) |
| GFTLNSYGIS | VIYRDGRRTQYGDSVK | GRAAGTFDC | 4.46 3.21 nd | 3.83 | 2/9 (3.32) |
| GFTLNSYGIS | NIYSDGRRTFYSQSVK | GRAAGTFDS | 4.05 nd nd | 4.05 | 0/9 |
| GFTLNSYGIS | VIYSDGRRTFYGDSVK | GRAWVTMDS | 2.34 0.93 0.82 | 1.36 | 0/9 |
| GFTLNSYGIS | HIYSEFRRTFYGDSVK | GRAAGTFDS | nd nd nd | nd | 0/9 |
| GFTLNSLGIS | VIYSDGRRTFYGDSVK | GRNAGTFDF | 1.97 2.19 2.54 | 2.23 | 1/9 (4.15) |
| GFTLNSYGIS | QIYSDGRRTFYGDSDK | GRAAGTFDA | nd 3.86 5.73 | 4.80 | 5/9 (4.24) |
| GFTLNSYGIS | VDTSDGRRTFYGDHVK | GRAAGTFDS | nd nd nd | nd | 0/9 |
| GFTLNSYGIS | VIYCDGRRCFYGDSVK | GRALGTFDS | nd nd nd | nd | 0/9 |
| GQTLNSYGIS | GIYSDGMRTFYGDSVK | GRAAGTFDS | nd nd nd | nd | 0/9 |
| GFTLNSYGLS | VIYSDGRRTFYGDSVK | GRAAFTFDS | 3.97 5.09 nd | 4.53 | 2/9 (4.13) |
| GFTLNSYGVS | VIYSDGRRPFYGDSVF | GRAAGTFDS | 4.34 nd 3.30 | 3.82 | 0/9 |
| GFTLNSYGIS | VIYSDGRITFYGDSLK | GRAAGTGDS | nd nd nd | nd | 1/9 (3.37) |
| GFTPNSYGIS | VIYSDGRRTFYGDDVK | GRAAGTWDS | 2.94 nd 2.63 | 2.78 | 1/9 (2.38) |
| AFTLNSYGIS | VIYSDGRRTFYGDSVM | GRAAGTFDS | 2.21 2.05 2.54 | 2.27 | 2/9 (4.31) |
| GFTLNSYGIS | VGYSDGFRTFYGDSDK | GRAAGTFDS | 5.62 nd 4.45 | 5.04 | 0/9 |
| GFRLNSYGIS | VIYSDGRRTFYGDSVK | GRAIGTFDS | nd nd nd | nd | 0/9 |
| GFSLNSYGIS | VIYSDGRRTFYGDSVN | GRAAGTFDI | 0.96 0.64 0.92 | 0.84 | 0/9 |
| RFTLNSYGIS | VIYSDGRRTFGGDSVK | GRAAGKFDS | nd nd nd | nd | 0/9 |
| LFELNSYGIS | VIYSDGRRTFYGDSVK | GRAAGTRDS | 3.10 2.75 2.90 | 2.91 | 1/9 (4.03) |
| GFTLNSYGIS | CIYGDGRRTFYGDSVK | GQAAGTFDS | nd nd nd | nd | 0/9 |
| GFTLNSYEIS | GIYEDGRRTFYGDSVK | GRAAGTFDS | nd nd nd | nd | 0/9 |
| GFTLNSYGIF | VIYSDGRRTFYGDSVK | GRAAFTFTS | nd nd nd | nd | 2/9 (3.20) |
| GFTLNSYGFS | VIYSDGRRTFYGDSVL | GSAAGTFDS | 1.55 1.29 1.31 | 1.38 | 2/9 (3.54) |
| GFTLGSYGIS | VIYRDGRRKFYGDSVK | GRAAGTFDS | nd 4.76 nd | 4.76 | 1/9 (4.37) |
| GFTLNSYGIS | VIFSDGRRTFRGDSVK | GRAAHTFDS | 4.05 nd nd | 4.05 | 0/9 |
| GFTLNSYGKS | VIYSDGEMTFYGDSVK | GRAAGTFDS | nd nd nd | nd | 0/9 |
| GFTLNSYGVS | VIYSDGRRTFYGDSVK | QRANGTFDS | nd 5.46 nd | 5.46 | 6/9 (4.58) |
| GFTLNSYGIS | VIYSEGRRTFYCDSVK | GRAANTFDS | nd nd nd | nd | 0/9 |
| GWELYSYGIS | VIYSDGRRTFYGDSVK | GRAAGTFDS | 3.00 3.54 3.98 | 3.51 | 5/9 (4.57) |

Top 3 of the variants detected in all replicates, tightest first:

CDR-H1,CDR-H2,CDR-H3,log10 Kd (nM) by replicate,"log10 Kd (nM), mean",empty controls
GFSLNSYGIS,VIYSDGRRTFYGDSVN,GRAAGTFDI,0.96 0.64 0.92,0.84,0/9
GFTLNSYGIS,VIYSDGRRTFYGDSVK,GRAWVTMDS,2.34 0.93 0.82,1.36,0/9
GFTLNSYGFS,VIYSDGRRTFYGDSVL,GSAAGTFDS,1.55 1.29 1.31,1.38,2/9 (3.54)